# Laboratory results: patent publication US10214520B2, “Substituted azaspiro(4.5)decane derivatives” (priority 2014, dated 2019)
# Amino acid sequences for entries named in this document (tags omitted). A change or cut given only in a name is not applied to a line headed by its entry.
# UniProt P35372, whole entry, looked up: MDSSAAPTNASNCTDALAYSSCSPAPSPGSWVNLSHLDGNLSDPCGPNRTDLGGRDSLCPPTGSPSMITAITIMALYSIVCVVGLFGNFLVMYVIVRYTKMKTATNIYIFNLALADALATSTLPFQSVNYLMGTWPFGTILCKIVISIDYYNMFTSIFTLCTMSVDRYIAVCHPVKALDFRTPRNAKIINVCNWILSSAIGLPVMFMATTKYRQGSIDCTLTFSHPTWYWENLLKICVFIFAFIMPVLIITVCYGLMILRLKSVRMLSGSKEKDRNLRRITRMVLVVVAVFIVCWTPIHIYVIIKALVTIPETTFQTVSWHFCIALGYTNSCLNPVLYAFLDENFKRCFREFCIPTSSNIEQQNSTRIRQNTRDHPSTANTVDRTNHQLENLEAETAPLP
# UniProt P41146: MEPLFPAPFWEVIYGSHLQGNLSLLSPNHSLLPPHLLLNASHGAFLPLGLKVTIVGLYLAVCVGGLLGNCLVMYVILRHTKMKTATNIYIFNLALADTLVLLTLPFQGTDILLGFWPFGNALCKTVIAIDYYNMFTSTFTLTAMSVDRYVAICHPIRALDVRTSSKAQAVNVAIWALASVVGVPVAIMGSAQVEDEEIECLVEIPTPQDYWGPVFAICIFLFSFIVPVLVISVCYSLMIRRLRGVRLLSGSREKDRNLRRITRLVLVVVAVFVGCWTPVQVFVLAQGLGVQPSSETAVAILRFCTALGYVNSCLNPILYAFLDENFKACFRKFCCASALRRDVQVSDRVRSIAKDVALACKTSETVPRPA
# What was measured:
# human μ opiate receptor = human μ opiate receptor (Homo sapiens, UniProt P35372); experiment: μ opiate receptor binding assay with [3H]-naloxone, membrane preparation of CHO-K1 cells (WGA-SPA beads); settings: for MOP % Inhibition @1 μM / % inhibition (μ) [1 μM]: test concentration 1 μM
# ORL1 receptor = ORL1 receptor (Homo sapiens, UniProt P41146); settings: for ORL1 % Inhibition @ 1 μM / % inhibition (ORL1) [1 μM]: test concentration 1 μM
# [1] = read-out: Ki (μ) mean [μm], mean
# [2] = read-out: Ki (ORL1) mean [μm], mean
Compound,Ki (human μ opiate receptor; read-out: MOP Ki),MOP % Inhibition @1 μM (human μ opiate receptor),Ki (ORL1 receptor; read-out: ORL1 Ki),ORL1 % Inhibition @ 1 μM (ORL1 receptor),Ki (human μ opiate receptor; [1]),% inhibition (μ) [1 μM] (human μ opiate receptor),Ki (ORL1 receptor; [2]),% inhibition (ORL1) [1 μM] (ORL1 receptor)
CN(C)C1(c2ccccc2)CCC2(CCN(C(=O)CCc3ccncc3)C2)CC1 (stereo not shown),27.5 nM,98%,7.8 nM,87%,,,,
CN(C)C1(c2ccccc2)CCC2(CCN(C(=O)CCc3ccccn3)C2)CC1 (stereo not shown),5.1 nM,100%,6.7 nM,76%,,,,
COc1cnc(NC(=O)CN2C[C@]3(CC[C@@](c4ccccc4)(N(C)C)CC3)CC2=O)cn1,102 nM,76%,885 nM,24%,,,,
CN(C)[C@]1(c2ccccc2)CC[C@]2(CC1)CC(=O)N(CCC(C)(C)C(=O)NC1(C#N)CC1)C2,30 nM,97%,225 nM,59%,,,,
CN(C)[C@]1(c2ccccc2)CC[C@]2(CC1)CC(=O)N(CC(N)=O)C2,265 nM,,165 nM,56%,,,,
CN(C)C1(c2ccccc2)CCC2(CCN(C(=O)CC3COC(=O)OC3)C2)CC1 (stereo not shown),,,,,27.5 nM,95.5%,43 nM,73%
Cis-2-[8-Dimethylamino-8-(3-methoxy-propyl)-3-oxo-2-azaspiro[4.5]decan-2-yl]-acetamide,,17%,,1%,,,,
COCCNC(=O)CN1CC2(CCC(c3ccccc3)(N(C)C)CC2)CC1=O (stereo not shown),9.7 nM,100%,17.5 nM,74%,,,,
CN(C)[C@]1(c2ccccc2)CC[C@]2(CC1)CC(=O)N(CCC(C)(C)C(=O)Nc1ccncc1)C2,8 nM,86%,29.5 nM,85%,,,,
CN(C)[C@]1(c2ccccc2)CC[C@]2(CC1)CC(=O)N(CCCNC(=O)c1cncnc1)C2,102 nM,35%,205 nM,51%,,,,
CN(C)C(=O)CNC(=O)CN1CC2(CCC(c3ccccc3)(N(C)C)CC2)CC1=O (stereo not shown),150 nM,81%,275 nM,52%,,,,
CC(=O)NCCC(=O)N1CCC2(CCC(c3ccccc3)(N(C)C)CC2)C1 (stereo not shown),69 nM,90%,227 nM,60%,,,,
CN(C)[C@]1(c2ccccc2)CC[C@]2(CC1)CC(=O)N(CCC(C)(C)C(=O)NCCCO)C2,81 nM,86%,230 nM,56%,,,,
CN(C)C1(c2cccs2)CCC2(CCN(C(=O)c3ccccn3)C2)CC1 (stereo not shown),,,,,79.5 nM,77.5%,110 nM,45%
CN(C)C1(c2ccccc2)CCC2(CCN(C(=O)Cc3cccnc3)C2)CC1 (stereo not shown),3.1 nM,101%,23.3 nM,82%,,,,
CN(C)C1(c2ccccc2)CCC2(CCN(C(=O)c3ccncc3)C2)CC1 (stereo not shown),,,,,1160 nM,46.5%,605 nM,21.5%
CN(C)[C@]1(c2ccccc2)CC[C@]2(CC1)CC(=O)N(CCC(=O)NCc1ccccc1)C2,8.4 nM,99%,93 nM,78%,,,,
CN(C)[C@]1(c2ccccc2)CC[C@]2(CC1)CC(=O)N(CCC(C)(C)C(=O)NCc1ccccc1)C2,10.8 nM,94%,4.9 nM,95%,,,,
CN(C)C1(c2ccccc2)CCC2(CCN(C(=O)CCCc3cccnc3)C2)CC1 (stereo not shown),11.9 nM,99%,23 nM,81%,,,,
CN(C)[C@]1(c2ccccc2)CC[C@]2(CC1)CC(=O)N(CCCC(N)=O)C2,125 nM,66%,107 nM,52%,,,,
CN(C)C1(c2cccs2)CCC2(CCN(Cc3ccccc3)C2=O)CC1 (stereo not shown),,,,,5.1 nM,95%,915 nM,27%
Cc1nccc(CNC(=O)C(C)(C)CCN2C[C@]3(CC[C@@](c4ccccc4)(N(C)C)CC3)CC2=O)n1,52.5 nM,88%,175 nM,67%,,,,
CN(C)C1(c2ccccc2)CCC2(CCN(Cc3ccncc3)C2)CC1 (stereo not shown),,,,,96.5 nM,76%,89.5 nM,57%
CN(C)[C@]1(c2ccccc2)CC[C@]2(CC1)CC(=O)N(CCC(C)(C)C(=O)NCC(N)=O)C2,180 nM,83%,215 nM,60%,,,,
CN(C)C1(c2ccccc2)CCC2(CC1)CC(=O)N(CC(C)(C)C(=O)NC1CCS(=O)(=O)CC1)C2 (stereo not shown),400 nM,58%,1430 nM,26%,,,,

# Where two headings read alike, the source gives them in different places.
